Each structure is given as a SMILES string.

Protein sequences, listed by entry. Tags and fused reporters are not part of them. Residues count along the entry.
UniProt Q14790, 385-479 limits assumed: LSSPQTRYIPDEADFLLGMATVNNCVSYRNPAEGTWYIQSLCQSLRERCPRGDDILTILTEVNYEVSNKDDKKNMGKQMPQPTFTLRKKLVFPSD
UniProt Q14790, 217-374 limits assumed: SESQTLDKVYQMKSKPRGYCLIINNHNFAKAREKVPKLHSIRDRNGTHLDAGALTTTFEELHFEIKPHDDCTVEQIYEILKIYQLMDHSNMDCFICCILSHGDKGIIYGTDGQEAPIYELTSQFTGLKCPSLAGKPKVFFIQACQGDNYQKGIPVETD
UniProt P42574, 29-175 limits assumed: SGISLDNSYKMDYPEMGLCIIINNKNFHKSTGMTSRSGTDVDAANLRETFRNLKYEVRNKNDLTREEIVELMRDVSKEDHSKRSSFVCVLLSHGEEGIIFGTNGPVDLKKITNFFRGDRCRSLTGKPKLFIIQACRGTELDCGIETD
UniProt P42574, 176-277 limits assumed: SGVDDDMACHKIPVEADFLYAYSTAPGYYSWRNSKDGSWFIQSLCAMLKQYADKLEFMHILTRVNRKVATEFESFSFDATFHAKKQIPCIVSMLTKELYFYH
UniProt Q92851, 416-521 limits assumed: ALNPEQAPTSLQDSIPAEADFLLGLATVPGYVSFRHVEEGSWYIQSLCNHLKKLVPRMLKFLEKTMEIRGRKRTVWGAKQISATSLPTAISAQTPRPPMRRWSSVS
UniProt Q92851, 220-415 limits assumed: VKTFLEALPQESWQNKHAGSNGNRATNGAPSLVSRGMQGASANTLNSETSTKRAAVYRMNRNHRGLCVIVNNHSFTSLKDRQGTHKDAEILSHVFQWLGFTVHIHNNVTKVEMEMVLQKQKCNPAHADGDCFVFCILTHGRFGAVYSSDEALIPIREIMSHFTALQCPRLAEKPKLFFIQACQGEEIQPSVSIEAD

The subject of test [1] is cysteines in MDA-MB-231 and Ramos cell proteomes. Nature of the test: Competitive isoTOP-ABPP in cell lysates (in vitro): proteomic reactivity / liganded cysteine rate. The format is binding, human. The settings on record: fragment 500 μM; % of quantified cysteines with R ≥4. Here is the method:
All cell lines were obtained from ATCC, were used with a low passage number and were grown at 37° C. with 5% CO2. MDA-MB-231 cells and HEK-293T cells were grown in DMEM supplemented with 10% fetal bovine serum, penicillin, streptomycin and glutamine. Jurkat, Ramos and MUM2C cells were grown in RPMI-1640 medium supplemented with 10% fetal bovine serum, penicillin and streptomycin. For in vitro labeling, cells were grown to 100% confluence for MDA-MB-231 cells or until cell density reached 1.5 million cells/mL for Ramos and Jurkat cells. […] Cell pellets were lysed by sonication and fractionated (100,000 g, 45 min) to yield soluble and membrane fractions, which were then adjusted to a final protein concentration of 1.5 mg/mL for proteomics experiments and 1 mg/mL for gel-based ABPP experiments. The soluble lysate was prepared fresh from frozen pellets directly before each experiment. Protein concentration was determined using the Bio-Rad DC™ protein assay kit.
For each sample, 100 μL of streptavidin-agarose beads slurry (Pierce) was washed in 10 mL PBS and then resuspended in 5 mL PBS. The SDS-solubilized proteins were added to the suspension of streptavidin-agarose beads and the bead mixture was rotated for 3 h at ambient temperature. After incubation, the beads were pelleted by centrifugation (1,400 g, 3 min) and were washed (2×10 mL PBS and 2×10 mL water). […]

The next test addresses active CASP8 (Homo sapiens, UniProt Q14790). Description: CASP8 in vitro activity assay (substrate). The format is biochemical. The settings on record: fragments 100 μM; DEVD-CHO 20 μM. Here is the method: Caspase 3 and 8 assays were conducted with CASP8 activity assay kit (BioVision, K112-100) and Caspase 3 activity assay kit (Invitrogen, EnzChek® Caspase-3 Assay Kit), following the manufacturer's instructions. Briefly, recombinant Caspase 3 (10 μM) was added to soluble Ramos lysates (1 mg/mL) to a 100 nM final concentration of protease. Caspase 8 (30 μM) was added to soluble Ramos lysates to a 1 μM final concentration of protease. In triplicate, 50 μL lysate was treated with either DMSO, DEVD-CHO (“DEVD” disclosed as SEQ ID NO: 857) (20 μM) or the indicated compounds (100 μM) for 1 h, following which 50 μL of 2× reaction buffer containing 10 mM DTT and 5 μL substrate (4 mM stock in DMSO of IETD-AFC (“IETD” disclosed as SEQ ID NO: 858) for CASP8; 10 mM stock in DMSO of DEVD-AMC (“DEVD” disclosed as SEQ ID NO: 857) for CASP3) was added to each well and the samples were incubated at ambient temperature for 2 h. Caspase activity was measured from the increase in fluorescence (excitation 380 nm emission 460 nm). Experiments were performed in triplicate. Background was calculated from samples lacking the recombinant caspase.

The next test addresses active CASP3 (Homo sapiens, UniProt P42574). Nature of the test: CASP3 in vitro activity assay (substrate). The format is biochemical. The settings on record: fragments 100 μM; DEVD-CHO 20 μM.
A further test concerns the target active CASP10 (Homo sapiens, UniProt Q92851). Nature of the test: Active CASP10 activity assay (AEVD-AMC substrate). The settings on record: fragments 25 μM; DEVD-CHO 20 μM. The format is biochemical.
A further test has as its system Jurkat cells. Nature of the test: Staurosporine-induced (intrinsic) apoptosis, CellTiter-Glo viability. It is filed as cell-based, human. The settings on record: 30 μM (VAD-FMK 100 μM), 30 min before STS, 6 h. Here is the method: 4 mL of Jurkat cells in RPMI (1.5 million cells/mL) were treated with the indicated compound at 30 μM for 30 min (50 mM stock solution in DMSO). Z-VAD-FMK (EMD Millipore Biosciences, 627610) and was used at a final concentration of 100 μM. After pre-incubation, FASL (4 μL of […] stock solution of SuperFasLigandm in water, final concentration=100 ng/mL, Enzo life Sciences) or staurosporine (8 μL of 1 mM stock solution in DMSO, final concentration=2 μM, Fisher Scientific, 50664333). […] The gels were transferred to nitrocellulose membranes and were immunoblotted overnight with the indicated antibodies. For measurements of cell viability, in quadruplicate for each condition, 150,000 cells (100 μL of 1.5 million cells/mL) were plated in Nunc™ MicroWell™ 96-Well Optical-Bottom Plates with Polymer Base (Fisher Scientific). Compounds, FASL and STS were used at the same concentrations indicated above with a 30 minute pre-incubation with compound, followed by 6 hours with either STS or FASL or DMSO. Cell viability was measured with CellTiter-Glo® Luminescent Cell Viability Assay (Promega) and was read on a Biotech Synergy 4 plate reader.
Background: In ATP-based viability assays light output follows the ATP content of the culture.

With `O=C(c1ccccc1)N1CCC(N(C(=O)CCl)c2ccccc2)CC1`, the “proteomic reactivity value (liganded cysteine rate)” value in test [1] worked out at 3%. In addition, the “CASP8 activity (substrate assay)” value on active CASP8 is listed as “but not”. Also, at active CASP3, the “CASP3 activity (substrate assay)” value was “not observed”. For the same molecule, at active CASP10, the “activity of active CASP10 (substrate assay)” value is on record as “did not inhibit”. In the test on Jurkat cells, the STS-induced intrinsic apoptosis entry is given as “did not block”.

The values above are taken from US10670605B2, “Cysteine reactive probes and uses thereof” (The Scripps Research Institute, priority 2015, dated 2020).
